Experimental data published in patent publication US20260240766A1, “FORMULATIONS AND USES THEREOF” (Sartorius Albumedix Limited, priority 2023, published 2026).

Assays:
Type in all cases: physicochemical
[1] = tested on: AAV2; test: Backgrounded Membrane Imaging of AAV2 with albumins after 4° C. storage or 4 freeze-thaw cycles; conditions: for Stabilisation of AAV2 after 4 freeze-thaw cycles (ThT positive particles ECD ≥2 μm): both buffers; for Stabilising the AAV2 during storage at 4° C. (total and ThT positive particles): 4° C. for 2 months, BMI
Procedure: (§1) After some rounds of formulation scouting, we selected the following conditions: • Tris-Citrate or TC=150 mM Tris, 50 mM Citrate, 25 mM MgCl2, PH=6 • Tris-Citrate+Na2SO4 or TCN=150 mM Tris, 50 mM Citrate, 25 mM MgCl2, PH=6, 50 mM Na2SO4
(§2) In all the experiments the albumin concentration was 5 mg/mL.
The samples for freeze-thaw (FT) and 4° C. storage experiments were prepared as described above, but only at high AAV2 concentration (vp/mL~E+13). Then the solutions were transferred into 0.5 mL Eppendorf® LoBind microcentrifuge tubes and these were, respectively, placed in an incubator (4° C. storage) or frozen at −20° C. These last solutions were then subsequently subjected to 4 cycles of freeze-thaw before measurement. The aggregation was measured by using Backgrounded Membrane Imaging (Aura system, Halo Labs, Burlingame, CA, USA). 50 μL of the samples, after storage for 2 months at 4° C. or after 4 freeze-thaw cycles, were spotted, without dilution, onto the membrane of Black Halo Labs plates (Halo Labs) suitable for fluorescence imaging. After imaging in Brightfield and Side Illumination Membrane Intensity (SIMI) the plates were removed from the instrument, a solution of the protein stain Thioflavin T (ThT) was added and incubated for 10 minutes. After the excess dye was removed, the fluorescence was acquired on the fluorescence channel (Ex 440/40 Em 500/40). The ThT stock was prepared by dissolving ~3 mg of ThT dry powder in 1 mL water. The solution was then filtered through a 0.22 μm syringe filter followed by measurement of the concentration by diluting the stock solution in ethanol and using an extinction coefficient of 26,620 M-1 cm-1 at 416 nm (Khurana et al, 2005). The number of particles with an Estimated Circular Diameter (ECD) ≥2 μm were reported as a measure of aggregation. We have also used the number of ThT fluorescent particles with an ECD ≥2 μm as a measure of amyloid-like protein aggregates. In some cases, we reported the number of particles with an ECD ≥2 μm as measured in brightfield subtracted to the ones in the same size range with a SIMI intensity higher than 10. This is named in the plots as: (Brightfield-SIMI). The rationale behind this treatment of the experimental data is that in this way, only protein aggregates are counted, eliminating non-protein particles from the scoring (e.g. due to environmental contamination). Indeed, non-protein aggregates are not flat on the membrane and are characterised by a high SIMI value. On the contrary, protein aggregates are flat on the membrane, with SIMI values around ~0±10. Therefore, by subtracting the SIMI particles from the ones counted in Brightfield, only the protein aggregates are considered.

[2] = Free cysteine of albumins, Ellman's assay (DTNB)
Procedure: The amount of free cysteine was determined by using the Ellman's reagent, DTNB ((5,5′-Dithiobis(2-nitrobenzoic acid-Sigma, Cat Number: D8130). A stock solution of DTNB was prepared at 4 mg/mL in assay buffer (0.1 M phosphate buffer, pH 8.0). The reagent was prepared on the day of the measurement and was protected from light.
For the standard curve, a 1.5 mM stock solution of L-Cysteine (Sigma #30089; MW=121.165 g/mol) was prepared in water on the same day of the assay.
From this stock, the Cysteine standards solutions were prepared by dilution in assay buffer at the following concentrations: 1.5, 1.25, 1.0, 0.75, 0.5, 0.25, 0 mM.
Assay solutions were prepared as follows: • 500 μL assay buffer • 50 μL standard or sample • 10 μL Ellman's reagent
And then were incubated in the dark for 10 minutes before measuring the absorbance at 412 nm.
The molar ratio [Cys]/[Albumin] was calculated for each sample. Values of the relative ratio (relative to the highest amount of free cysteine sample) are also reported.

[3] = Copper level of albumin samples, semi-quantitative ICP-MS
Procedure: Approximately 0.2 g of sample from each sample was accurately weighed into the micro-insert vessels of the Milestone Ethos UP microwave system (Analytix, UK). Each sample was prepared in triplicate. The highest purity grade chemicals were used throughout (Ultra High Purity Acids & Reagents, Romil, UK). Sample digestion was performed using 1 mL nitric acid (HNO3), and 0.2 mL of hydro peroxide. Vessels were closed after the addition of the chemicals and digested using the following program: • Temperature ramped to 180° C. over 10 minutes, • Hold at 180° C. for 30 minutes. • Cool to room temperature
The digest solutions were transferred into 50 mL polyethylene tubes, and made up to 20 g with ultra-pure water 18 MQcm (megaohm-cm) (Elga Water, UK). […] Two microwave batches were run each contained 3 reagent blanks and 1 replicate of a quality control (QC) material. Additionally, two samples per batch were selected at random and spiked with a multi-element standard.
Semi-quantitative analysis of the digested samples was performed using an Agilent 7700 ICP-MS (Agilent Technologies, UK). The samples were introduced into the plasma using a glass nebuliser (Micromist) and a Scott double pass spray chamber cooled at 2° C. Analysis was performed in pumping mode using the instrument in collision mode with helium as cell gas to reduce potential interferences. The instrument was optimised and tuned for maximum sensitivity. Semi-quantitative analysis is a screening method which uses relative response factors and a multi-element standard solution containing 0.05 μg·g^−1 of Li, Al, Co, Y, Cd, Ce, Tl and U and with Si, Ca and P at 0.3 μg·g^−1 (Romil, UK) which was prepared in 5% HNO3 to match the sample acid concentration.
The Limit of Quantification (LOQ) was evaluated using at least 6 measurements of the reagent blank in the analytical run. The LOQ was calculated as the mean blank concentration plus 10 times the standard deviation of the blank measurements. All sample results were corrected for the individual dilution factors and the procedural blank. The concentrations for the samples are reported in μg·g^−1 for the sample as received for all elements except Na, K and P which are reported in % (m/m). The results relate only to the items tested.

[4] = tested on: AAV2; test: Temperature incubation (25° C. then 40° C.) of AAV2 with albumins from different sources, DLS; conditions: for Overall performance in temperature incubation of AAV2: both temperatures (25°, 40° C.), both buffers, compared to rice-derived and serum-derived albumin; for Hydrodynamic radius over time with AAV2: AAV2 9.2E+12 vp/mL in Tris-Citrate+Na2SO4, albumin 5 mg/mL, 25° C. then 40° C.
Procedure: as §1, §2
The incubation at 25° C. and 40° C. was carried out both at low (vp/mL~E+11) and high (vp/mL~E+13) AAV2 concentrations. In either case, the solutions were prepared by diluting the AAV2 stock (Vigene, vg/mL=1.06E+13, vp/mL~5.52E+13, phosphate buffer saline with 0.001% Poloxamer 188) in the target buffer.
Dynamic Light Scattering (DLS-Dyna Pro Plate reader II, Wyatt, serial #: 221-WPR2) was then used to follow the aggregation over time. To perform the experiment, 25 μL of each sample were transferred to a 384 Aurora well plate (Wyatt). Each formulation was analysed in triplicate. The wells were sealed with 20 μL of paraffin oil to prevent evaporation during the experiment. Before measurement, the plate was spun at 2000×g for 2 minutes to remove air bubbles. The changes in hydrodynamic radii (RH—cumulant analysis, see also Example 8) following incubation at 25° C., followed by the incubation at 40° C., were monitored over time.

[5] = Aggregation level of albumin stocks (SEC-HPLC % polymer, DLS); conditions: DLS at 5 mg/ml in DPBS
Procedure: The aggregation level was quantified by SEC-HPLC as “percentage polymer” and qualitatively evaluated by Dynamic Light Scattering (DLS) via changes in the values of the hydrodynamic radius (RH) and polydispersity index (PD index). The polymer amount was measured by loading 20 to 40 mg/ml albumin on a TSK G3000SWXL GPC column (7.8 mm id×300 mm) equilibrated in 20 mM sodium phosphate (Fisher Chemicals), 100 mM sodium sulfate (Fisher Chemicals), 0.05% (w/v) sodium azide (Sigma Chemicals), pH 7.0. The flow rate was 1 mL/min, and the albumin were diluted from the stock into double distilled water. The percentage of albumin polymer in the sample was calculated using: • wherein:
The DLS measurements were done on a DynaPro™ Plate reader II (Wyatt, serial #: 221-WPR2−λ=826.150 nm). The albumin samples were diluted to 5 mg/ml in DPBS and then plated in triplicate in a 96-well Corning 3880 Half Area non-treated plate. Before measurement the plate was spun at 2000×g for 2 minutes to remove bubbles.

Pichia 1: recombinant albumin produced in Pichia, supplier 1
Stabilisation of AAV2 after 4 freeze-thaw cycles (ThT positive particles ECD ≥2 μm) [1]: improved performance | Stabilising the AAV2 during storage at 4° C. (total and ThT positive particles) [1]: performed the best | Free cysteine (mole Cys per mole protein), ranking [2]: higher in the ranking | 65 Cu (μg/g in sample as received) [3]: 0.1281 µg/g | Overall performance in temperature incubation of AAV2 [4]: performed better

Pichia 2: recombinant albumin produced in Pichia, supplier 2; believed to have approximately 4-amino acid N-terminal extension
65 Cu (μg/g in sample as received) [3]: 0.3472 µg/g

Rice 2: recombinant albumin produced in rice
65 Cu (μg/g in sample as received) [3]: 0.5763 µg/g

Rice 3: recombinant albumin produced in rice
Free cysteine (mole Cys per mole protein), ranking [2]: low in the ranking | 65 Cu (μg/g in sample as received) [3]: 0.5729 µg/g | Aggregation level of albumin stock (% polymer, RH) [5]: high levels of aggregates | Hydrodynamic radius over time with AAV2 [4]: aggregated

Saccharomyces 1.1: recombinant human albumin (SEQ ID NO: 2) produced in S. cerevisiae, source 1, batch 1; formulated with octanoate
Free cysteine (mole Cys per mole protein), ranking [2]: higher in the ranking | 65 Cu (μg/g in sample as received) [3]: 0.03459 µg/g

Saccharomyces 1.2: recombinant human albumin produced in S. cerevisiae, source 1, batch 2
Stabilisation of AAV2 after 4 freeze-thaw cycles (ThT positive particles ECD ≥2 μm) [1]: improved performance | Stabilising the AAV2 during storage at 4° C. (total and ThT positive particles) [1]: performed the best | Free cysteine (mole Cys per mole protein), ranking [2]: higher in the ranking | 65 Cu (μg/g in sample as received) [3]: 0 µg/g | Hydrodynamic radius over time with AAV2 [4]: did not change | Overall performance in temperature incubation of AAV2 [4]: performed better

Saccharomyces 1.3: recombinant human albumin produced in S. cerevisiae, source 1, batch 3
Free cysteine (mole Cys per mole protein), ranking [2]: higher in the ranking | 65 Cu (μg/g in sample as received) [3]: 0 µg/g

Saccharomyces 2.1: recombinant human albumin produced in S. cerevisiae, source 2, batch 1; not formulated with octanoate
65 Cu (μg/g in sample as received) [3]: 0 µg/g

Saccharomyces 2.2: recombinant human albumin produced in S. cerevisiae, source 2, batch 2
65 Cu (μg/g in sample as received) [3]: 0.04063 µg/g

Saccharomyces 2.3: recombinant human albumin produced in S. cerevisiae, source 2, batch 3
65 Cu (μg/g in sample as received) [3]: 0.05297 µg/g

Saccharomyces 3.1: recombinant human albumin produced in S. cerevisiae, source 3, batch 1 (expired batch)
65 Cu (μg/g in sample as received) [3]: 0 µg/g

Saccharomyces 3.2: recombinant human albumin produced in S. cerevisiae, source 3, batch 2 (expired batch)
65 Cu (μg/g in sample as received) [3]: 0 µg/g

Serum Derived: A serum-derived albumin
Free cysteine (mole Cys per mole protein), ranking [2]: low in the ranking | 65 Cu (μg/g in sample as received) [3]: 0.2044 µg/g | Aggregation level of albumin stock (% polymer, RH) [5]: high amount of polymer | Hydrodynamic radius over time with AAV2 [4]: aggregated
